Earlier results in patent publication US12404348B2, “Bifunctional chimeric molecules for labeling of kinases with target binding moieties and methods of use thereof” (The Brigham and Women's Hospital, Inc., priority 2021, dated 2025).

By UniProt entry, the sequences of proteins in these tests, tags left out.
UniProt Q9Y243, whole entry, species assumed: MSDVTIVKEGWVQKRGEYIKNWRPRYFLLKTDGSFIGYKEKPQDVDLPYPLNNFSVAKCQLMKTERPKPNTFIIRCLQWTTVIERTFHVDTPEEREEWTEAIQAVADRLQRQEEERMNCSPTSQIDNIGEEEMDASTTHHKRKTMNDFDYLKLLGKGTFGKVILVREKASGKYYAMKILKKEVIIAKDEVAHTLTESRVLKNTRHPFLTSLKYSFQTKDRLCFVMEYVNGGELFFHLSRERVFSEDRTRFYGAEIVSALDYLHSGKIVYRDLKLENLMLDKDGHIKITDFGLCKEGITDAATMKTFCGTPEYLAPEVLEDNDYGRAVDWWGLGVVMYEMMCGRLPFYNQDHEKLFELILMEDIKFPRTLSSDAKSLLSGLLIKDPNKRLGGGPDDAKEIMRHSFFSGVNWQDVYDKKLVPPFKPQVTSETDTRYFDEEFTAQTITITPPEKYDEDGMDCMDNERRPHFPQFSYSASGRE

Target: AKT3 (Homo sapiens, UniProt Q9Y243)

Nc1ncccc1-c1nc2cc(-c3cccnc3)cnc2n1-c1ccc(CNC(=O)c2cccc(F)c2)cc1 [Compound 12g]
Akt3 ΔTm: 1.5 °C
